Results on 2 compounds are retold here after ChEMBL document CHEMBL5543101, “Identification of 3-aryl-5-methyl-isoxazole-4-carboxamide derivatives and analogs as novel HIF-2α agonists through docking-based virtual screening and structural modification” (Eur J Med Chem, 2024).

The chains behind the UniProt entries cited, without tags or fusion partners. Where a name states a change or a piece, a line headed by the entry shows the natural chain unless it says otherwise.
UniProt Q99814: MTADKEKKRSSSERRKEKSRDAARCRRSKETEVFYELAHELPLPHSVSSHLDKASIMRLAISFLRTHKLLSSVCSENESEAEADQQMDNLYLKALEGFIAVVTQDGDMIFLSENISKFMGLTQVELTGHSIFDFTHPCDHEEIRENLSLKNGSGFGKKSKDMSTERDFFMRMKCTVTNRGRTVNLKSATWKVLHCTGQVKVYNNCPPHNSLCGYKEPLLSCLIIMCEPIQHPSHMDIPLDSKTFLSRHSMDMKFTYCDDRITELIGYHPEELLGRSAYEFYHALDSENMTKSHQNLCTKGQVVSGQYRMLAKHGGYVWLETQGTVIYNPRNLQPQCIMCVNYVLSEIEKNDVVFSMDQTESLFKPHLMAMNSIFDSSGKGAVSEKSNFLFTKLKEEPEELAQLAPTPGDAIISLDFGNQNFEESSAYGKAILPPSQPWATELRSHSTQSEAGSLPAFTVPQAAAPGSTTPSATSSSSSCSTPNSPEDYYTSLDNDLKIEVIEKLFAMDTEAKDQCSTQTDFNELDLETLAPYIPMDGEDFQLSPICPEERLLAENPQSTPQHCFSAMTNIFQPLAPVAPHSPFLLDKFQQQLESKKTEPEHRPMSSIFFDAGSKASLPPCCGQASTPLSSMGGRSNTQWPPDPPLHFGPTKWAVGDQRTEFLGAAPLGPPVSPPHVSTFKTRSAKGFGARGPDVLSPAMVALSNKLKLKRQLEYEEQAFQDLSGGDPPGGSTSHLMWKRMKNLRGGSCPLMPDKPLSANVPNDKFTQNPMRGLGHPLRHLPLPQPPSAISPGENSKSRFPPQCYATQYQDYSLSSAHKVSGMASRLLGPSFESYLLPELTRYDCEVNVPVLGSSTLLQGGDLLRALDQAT

Assay [1] can be described thus: Effect on EPO mRNA expression in human 786-0 cells assessed as fold change at 10 uM incubated for 24 hrs by RT-PCR analysis (reference value: 0.98 +/- 0.14). The format is functional.
Assay [2] concerns the target Endothelial PAS domain-containing protein 1 (Homo sapiens, UniProt Q99814). The experiment in a line: Agonist activity at HIF-2alpha in human 786-0 cells assessed as increase in VEGF secretion at 2 uM incubated for 20 hrs by ELISA relative to control. The assay is classed as cell-based. Particulars: filed as agonist. A general note: In an ELISA, binding on a coated surface is turned into a signal by an enzyme label.

As to `O=C(Nc1cccc(C(F)(F)F)c1)c1cn[nH]c1-c1ccccc1Cl`, the “fold change (FC)” value in assay [1] was 2.03.
As to `O=S1(=O)N=C(Nc2cc(C(F)(F)F)cc(C(F)(F)F)c2)c2ccccc21`, in assay [2], the Activity was 113%.
